For 1 compound, Ki results are on record in BindingDB's records for 11831902.

The assay deals with Carboxylic ester hydrolase (Equus caballus, UniProt Q9N1N9). The assay is described as follows: Inhibitory activity against Butyrylcholinesterase (BChE).

Take `CN(C)C(=O)Oc1cccnc1CO`: the affinity corresponds to a Ki of 1.38 mM.
